Target: T1, mTOR (Homo sapiens, UniProt P42345)
T1 construct: 2.5 μl of 0.6 μg/ml of mTOR Enzyme (Amgen) was added to rows 1-23
Assay: mTOR LanthaScreen (TR-FRET, phosphorylation of 4EBP1)
Type: biochemical
Conditions: read-out: AA11016+++mTor_MA_IC50_IP
Description: The mTOR LanthaScreen is a TR-FRET assay measuring the phosphorylation of mTOR's substrate 4EBP1. 384 well compound plates were prepared containing 1 μl of compound per well starting at 5 mM and diluted 1:2 across the row, resulting in a 22 well serial dilution.
The assay was conducted on the PerkinElmer® FlexDrop PLUS. A 5 μl mix of 800 nM GFP-4E-BP1 (Invitrogen, PV4759) and 20 μM ATP (Amgen) was added to rows 1-24. 2.5 μl of 0.6 μg/ml of mTOR Enzyme (Amgen) was added to rows 1-23. 2.5 μl of assay buffer was added to row 24 for the low control. […] The final concentrations in the assay reagents were 400 nM GFP-4E-BP1, 10 μM of ATP and 0.15 μg/ml of mTOR enzyme. The compound, enzyme, and substrate incubate for 90 minutes.

mixture of ((4-(5-(3-(hydroxymethyl)-4-methoxyphenyl)-2-(1H-pyrazol-3-ylamino)-1H-benzimidazol-1-yl)-6-methyl-1,3,5-triazin-2-yl)amino)acetonitrile; and ((4-(6-(3-(hydroxymethyl)-4-methoxyphenyl)-2-(1H-pyrazol-3-ylamino)-1H-benzimidazol-1-yl)-6-methyl-1,3,5-triazin-2-yl)amino)acetonitrile [Cpd 126]
IC50: 7.6 nM
